Among the data in patent US5011930A, “Quinoline type mevalonolactones” (Nissan Chemical Industries Ltd., priority 1987, dated 1991) are IC50 values, retold here.

The assay deals with cholesterol biosynthesis in Hep G2 cells. Kind of assay: Test B-1: Inhibition of cholesterol biosynthesis in culture cells (Hep G2). The settings on record: Homo sapiens, HepG2, [2-^14 C]sodium acetate added at 0 hr after addition of compounds, 4 hrs incubation, read-out: Inhibitory activities by Test B-1: I50 (molar concentration). It counts as cell-based. The protocol:
Hep G2 cells at over 5th passage were seeded to 12 well plates and incubated with Dulbecco's modified Eagle (DME) medium containing 10% of fetal bovine serum (FBS) at 37° C., 5% CO2 until cells were confluent for about 7 days. Cells were exposed to the DME medium containing 5% of lipoprotein deficient serum (LpDS) prepared by ultracentrifugation method for over 24 hours. Medium was changed to 0.5 ml of fresh 5% LpDS containing DME before assay and 10 μl of test compound solution dissolved in water or DMSO were added. 0.2 μCi of [2-^14 C]sodium acetate (20 μl) was added at 0 hr(B-1) or 4 hrs(B-2) after addition of compounds. After 4 hrs further incubation with [2-^14 C]sodium acetate, medium was removed and cells were washed with phosphate buffered saline(PBS) chilled at 4° C. Cells were scraped with rubber policeman and collected to tubes with PBS and digested with 0.2 ml of 0.5 N KOH at 37° C. Aliquot of digestion was used for protein analysis and remaining was saponified with 1 ml of 15% EtOH--KOH at 75° C. for 1 hour. […] Counts were revised by cell protein and indicated with DPM/mg protein. Inhibitory activity of compounds was indicated with IC50.

For `CC[C@H](C)C(=O)O[C@H]1C[C@H](O)C=C2C=C[C@H](C)[C@H](CC[C@@H](O)C[C@@H](O)CC(=O)O)[C@H]21` [CS-514, reference compound], the IC50 came to 0.35 µM.
